Experimental data as given in ChEMBL document CHEMBL1129286, “In vitro and in vivo studies of benzisoquinoline ligands for the brain synaptic vesicle monoamine transporter” (J Med Chem, 1996).

The chains behind the UniProt entries cited, without tags or fusion partners.
UniProt Q01827, whole entry: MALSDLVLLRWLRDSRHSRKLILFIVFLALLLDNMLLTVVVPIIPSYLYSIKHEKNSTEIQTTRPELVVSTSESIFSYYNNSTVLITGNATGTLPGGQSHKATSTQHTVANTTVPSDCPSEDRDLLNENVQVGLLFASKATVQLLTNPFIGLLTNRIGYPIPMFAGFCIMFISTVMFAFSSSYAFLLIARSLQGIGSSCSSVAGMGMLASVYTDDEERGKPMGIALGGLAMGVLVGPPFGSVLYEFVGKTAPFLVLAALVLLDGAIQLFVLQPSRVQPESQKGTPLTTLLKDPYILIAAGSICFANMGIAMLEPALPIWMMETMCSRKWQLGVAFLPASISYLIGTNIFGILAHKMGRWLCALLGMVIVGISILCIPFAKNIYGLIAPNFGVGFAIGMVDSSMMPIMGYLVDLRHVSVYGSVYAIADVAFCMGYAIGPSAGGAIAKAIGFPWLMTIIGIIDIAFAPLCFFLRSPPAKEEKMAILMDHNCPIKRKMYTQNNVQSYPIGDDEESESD

Biological target: Synaptic vesicular amine transporter (Rattus norvegicus, UniProt Q01827)
Experiment: In vitro inhibition of [3H]- Methoxytetrabenazine binding to rat brain vesicular monoamine transporter 2 (VMAT2)
In short: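 Autoradiographic competition on rat brain coronal sections (20, caudate-putamen level) on slides. Sections prewashed at 25 °C in sucrose buffer (300 mM sucrose, 50 mM Tris, 1 mM EDTA, pH 8.0), then incubated 3 h with 10 nM [3H]methoxytetrabenazine and test drug from 1 nM. Washed 3 × 3 min, dipped in 4 °C water, air-dried, film-exposed 2 weeks. Striatal densitometry against calibrated standards; Ki by nonlinear one-/two-site fitting; mean ± SD, n = 3.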

Structure (SMILES): COc1cc2c(cc1OC)[C@H]1CC(=O)[C@H](CC(C)C)CN1CC2
- Ki: 8.1 nM
